For this test, the target named is Topo IIα (Homo sapiens, UniProt P11388). Nature of the test: pBR322 DNA relaxation assay. The conditions noted are these: gel, reference at 100 µM. The test is classed as biochemical.

Amino acid sequences for entries named in this document (tags omitted). A change or cut given only in a name is not applied to a line headed by its entry.
UniProt P11388: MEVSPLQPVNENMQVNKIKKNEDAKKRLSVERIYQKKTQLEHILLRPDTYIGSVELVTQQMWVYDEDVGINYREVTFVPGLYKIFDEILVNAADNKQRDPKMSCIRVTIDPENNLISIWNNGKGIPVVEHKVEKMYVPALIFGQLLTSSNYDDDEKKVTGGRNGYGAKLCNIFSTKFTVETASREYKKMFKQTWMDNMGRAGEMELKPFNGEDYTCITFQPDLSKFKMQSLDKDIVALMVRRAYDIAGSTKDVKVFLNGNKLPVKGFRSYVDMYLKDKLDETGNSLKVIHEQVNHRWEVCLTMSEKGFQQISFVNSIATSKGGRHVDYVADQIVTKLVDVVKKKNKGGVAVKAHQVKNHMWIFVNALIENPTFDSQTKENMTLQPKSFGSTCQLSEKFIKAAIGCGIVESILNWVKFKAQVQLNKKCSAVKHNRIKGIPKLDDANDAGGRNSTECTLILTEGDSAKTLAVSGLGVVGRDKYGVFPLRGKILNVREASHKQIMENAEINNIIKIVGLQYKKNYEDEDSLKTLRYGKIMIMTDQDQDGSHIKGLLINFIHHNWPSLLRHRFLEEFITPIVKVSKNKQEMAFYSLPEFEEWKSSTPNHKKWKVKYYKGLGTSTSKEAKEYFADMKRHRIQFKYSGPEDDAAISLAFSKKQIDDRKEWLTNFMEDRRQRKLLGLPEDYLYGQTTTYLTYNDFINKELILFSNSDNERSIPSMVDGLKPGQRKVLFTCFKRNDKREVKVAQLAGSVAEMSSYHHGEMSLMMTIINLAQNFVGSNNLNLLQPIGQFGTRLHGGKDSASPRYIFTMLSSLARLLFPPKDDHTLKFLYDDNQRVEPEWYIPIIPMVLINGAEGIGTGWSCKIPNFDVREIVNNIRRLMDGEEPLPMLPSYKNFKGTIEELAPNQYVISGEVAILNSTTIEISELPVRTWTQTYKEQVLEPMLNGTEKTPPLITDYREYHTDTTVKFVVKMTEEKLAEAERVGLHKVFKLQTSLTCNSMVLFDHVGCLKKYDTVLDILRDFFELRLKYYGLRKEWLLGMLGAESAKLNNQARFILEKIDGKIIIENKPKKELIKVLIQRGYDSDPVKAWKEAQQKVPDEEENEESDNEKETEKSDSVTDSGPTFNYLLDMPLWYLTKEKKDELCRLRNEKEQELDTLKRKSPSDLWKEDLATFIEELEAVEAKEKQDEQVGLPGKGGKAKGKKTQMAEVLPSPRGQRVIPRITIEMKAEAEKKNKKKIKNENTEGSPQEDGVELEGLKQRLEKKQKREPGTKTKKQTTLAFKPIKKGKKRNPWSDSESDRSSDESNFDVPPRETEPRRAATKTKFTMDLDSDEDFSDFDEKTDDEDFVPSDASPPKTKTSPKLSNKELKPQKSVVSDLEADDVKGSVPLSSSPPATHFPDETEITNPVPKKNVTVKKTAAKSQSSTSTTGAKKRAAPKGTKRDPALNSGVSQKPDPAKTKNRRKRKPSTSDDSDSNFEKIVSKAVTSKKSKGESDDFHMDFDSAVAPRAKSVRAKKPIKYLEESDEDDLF

On to `COc1cc([C@@H]2c3cc4c(cc3[C@@H](O[C@@H]3O[C@@H]5CO[C@@H](C)O[C@H]5[C@H](O)[C@H]3O)[C@H]3COC(=O)[C@H]23)OCO4)cc(OC)c1O` [Etoposide, etoposide, reference compound], for which the “Inhibition of Topo IIα-mediated pBR322 relaxation” value was “completely inhibited relaxation activity”.

The values are drawn from paper PMC10791108 (Journal of Enzyme Inhibition and Medicinal Chemistry, 2024).
